One molecule from US8309097B2, “C-type lectin binding molecules, identification and uses thereof” (Vereniging voor Christelijk Wetenschappelijk Onderwijs, priority 2002, dated 2012) can be followed below.

The chains behind the UniProt entries cited, without tags or fusion partners.
UniProt Q9NNX6, whole entry V351G: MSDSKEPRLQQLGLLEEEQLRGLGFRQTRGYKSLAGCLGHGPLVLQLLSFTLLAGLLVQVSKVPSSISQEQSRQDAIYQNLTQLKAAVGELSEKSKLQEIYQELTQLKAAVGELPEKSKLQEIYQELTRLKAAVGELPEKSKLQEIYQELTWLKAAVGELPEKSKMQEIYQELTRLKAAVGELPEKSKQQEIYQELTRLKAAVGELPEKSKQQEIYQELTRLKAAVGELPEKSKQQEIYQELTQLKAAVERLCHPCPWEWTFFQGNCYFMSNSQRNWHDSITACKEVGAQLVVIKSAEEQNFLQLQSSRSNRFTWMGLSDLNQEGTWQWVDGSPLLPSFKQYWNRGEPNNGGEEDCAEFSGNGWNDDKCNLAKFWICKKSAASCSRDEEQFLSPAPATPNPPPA

The experiment concerns the target DC-SIGN V351G mutant (Homo sapiens, UniProt Q9NNX6, V351G).

B1: ICAM-3: cellular ligand of DC-SIGN (protein)
chain: QEFLLRVEPQNPVLSAGGSLFVNCSTDCPSSEKIALETSLSKELVASGMGWAAFNLSNVTGNSRILCSVYCNGSQITGSSNITVYRLPERVELAPLPPWQPVGQNFTLRCQVEDGSPRTSLTVVLLRWEEELSRQPAVEEPAEVTATVLASRDDHGAPFSCRTELDMQPQGLGLFVNTSAPRQLRTFVLPVTPPRLVAPRFLEVETSWPVDCTLDGLFPASEAQVYLALGDQMLNATVMNHGDTLTATATATARADQEGAREIVCNVTLGGERREARENLTVFSFLGPIVNLSEPTAHEGSTVTVSCMAGARVQVTLDGVPAAAPGQPAQLQLNATESDDGRSFFCSATLEVDGEFLHRNSSVQLRVLYGPKIDRATCPQHLKWKDKTRHVLQCQARGNPYPELRCLKEGSSREVPVGIPFFVNVTHNGTYQCQASSSRGKYTLVVVMDIEAGSSH
For B1, the “binding to DC-SIGN V351G mutant” value is “abrogated”.
